# According to patent publication US6077872A (priority 1998, dated 2000):
# What was measured:
# [1] = tested on: ovariectomized rats with osteoporosis; conditions: 200 mg element calcium/kg/d; model-control 11.3 ± 4.7
# [2] = tested on: preschool children
# [3] = in vivo; conditions: dog, po, 200 mg/kg
smiles,measurement,setting,value
O=C(O)[C@H](O)[C@@H](O)CO [calcium L-threonate],S (work to yield or break femur),[1],23.2
same,extent of BMDs' increase,"[2]; 2 bags/day of 150 mg element calcium, 3 months",23.22%
same,extent of BMDs' increase relative to the calcium carbonate group,[2]; in vivo,about twice
same,AUC,[3],232 µg·h/mL
